Protein sequences, listed by entry. Tags and fused reporters are not part of them. Residues count along the entry.
UniProt P51617, 194-712: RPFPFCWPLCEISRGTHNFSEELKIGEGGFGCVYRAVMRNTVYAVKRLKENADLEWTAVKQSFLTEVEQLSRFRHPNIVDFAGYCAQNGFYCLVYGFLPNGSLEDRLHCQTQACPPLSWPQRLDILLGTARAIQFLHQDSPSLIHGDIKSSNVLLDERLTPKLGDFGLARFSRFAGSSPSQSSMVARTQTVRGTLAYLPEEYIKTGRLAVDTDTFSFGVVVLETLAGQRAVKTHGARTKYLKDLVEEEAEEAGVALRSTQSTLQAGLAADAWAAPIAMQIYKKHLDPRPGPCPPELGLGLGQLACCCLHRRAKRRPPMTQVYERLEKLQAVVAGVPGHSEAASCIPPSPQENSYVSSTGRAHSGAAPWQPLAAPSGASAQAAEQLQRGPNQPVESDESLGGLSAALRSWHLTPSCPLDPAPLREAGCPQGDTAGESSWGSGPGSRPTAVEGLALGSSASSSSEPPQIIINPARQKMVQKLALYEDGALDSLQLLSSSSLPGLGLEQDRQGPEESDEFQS

According to patent US9624246B2, “Pyridazinone macrocycles as IRAK inhibitors and uses thereof” (Merck Patent GmbH, priority 2015, dated 2017):

Target: human purified recombinant IRAK1 (His-TEV-IRAK1 (194-712)) (Homo sapiens (Human), UniProt P51617)
Assay: IRAK1 enzymatic assay (ADP-Glo luminescence)
Type: biochemical
Conditions: ATP 1 μM, 2 h at RT
Procedure: IRAK1 is a human purified recombinant enzyme (His-TEV-IRAK1 (194-712))
In this assay, IRAK1 hydrolyses ATP and autophosphorylates. Measurement of IRAK-1 inhibition is performed in 384-well format based on luminescence assay (ADP-Glo™ Kinase Assay from Promega). Purified human recombinant IRAK1 (0.3 μg/ml) and serial diluted compounds in DMSO (range of concentration from 10 μM to 0.5 nM) or controls (1% DMSO) are incubated for 15 minutes at RT in assay buffer containing 50 mM Hepes pH 7.0, Fatty acid-free BSA 0.1%, Dithiothreitol (DTT) 2 mM, MgCl2 10 mM, EGTA 0.5 mM, Triton X-100 0.01%. The kinase reaction is then initiated by the addition of ATP at a concentration of 1 μM. After 2 hours of incubation at RT, the reaction is stopped and the unconsumed ATP depleted by the addition of ADP-Glo™ Reagent according to supplier instructions. After 40 minutes of incubation at RT, the Kinase Detection Reagent is then added to the assay plate according to supplier instructions. After 20 minutes of incubation at RT, the luminescence signal is measured with a luminometer (PerkinElmer Envision or equivalent reader).

Work on `Cn1cc2c(n1)C(=O)NCCCCOc1ccc(=O)n(n1)Cc1cccc(c1)C(=O)N2` [Compound 5, 12-methyl-21-oxa-1,9,12,13,16,26-hexaazatetracyclo[20.3.1.1^3,70^10,14]heptacosa-3,5,7(27),10,13,22(26),23-heptaene-8,15,25-trione] yielded an IC50 of 100 to 1000 nM.
